High-throughput results from PubChem.
Only some compounds are listed: those with a hit (about 13% of all), similar ones and a draw of the others.
Sfp PPTase inh: qHTS Assay for Inhibitors of Bacillus subtilis Sfp phosphopantetheinyl transferase (PPTase) | 4'-phosphopantetheinyl transferase ffp (Bacillus subtilis), Q9F4F7 | Biochemical Sfp PPTase activity, qHTS | Potency, µM, for inactives: max response, negative = inhibition, hits mostly inhibitors | 3.5% of 310,000 active | AID 1490, 2009; active = well fitted inhibition curve with a large enough effect; inconclusive = small, poorly fitted or top-dose-only effect, or another doubt; inactive = no such curve, though single readings can be large or run the other way;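 also: the enzyme is Sfp with the accession as filed and its product quenches rhodamine fluorescence; potency is read from the fitted curve at half-maximal effect; 0% = enzyme reaction without inhibitor and -100% = no enzyme wells; top concentration of the series not given in the record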
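Step 1, compound plus 15 nM Sfp-PPTase, 15 min, room temperature. Step 2, add rhodamine-CoA (5 uM) and BHQ-2-YbbR (12.5 uM). Step 3, read 525/598 nm fluorescence at 0 and 30 min.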
miR-21 FLuc: miR-21 reporter, rising signal; HeLa miR-21 FLuc reporter, luciferase, 48 h; Potency, µM (doses to about 38.3 µM), for inactives: at the highest dose reporter change, positive = more light; 340,000 tested, under 10 active; AID 2288; active = well fitted rising curve with a large enough effect; inconclusive = small, poorly fitted or top-dose-only effect; inactive = no such curve, though single readings can be large or run the other way;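 further: % of control where 0% means no effect; miR-21 action dims this reporter so a rising signal means less miR-21 action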
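Luminescence from a firefly luciferase reporter carrying a miR-21 binding site downstream, stably expressed under a CMV promoter in HeLa cells that make miR-21 endogenously, reports miRNA modulation after 48 h compound exposure up to approximately 40uM final.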
ALDH1A1 inh: blocks purified human ALDH1A1 activity. P00352. Purified ALDH1A1, NADH fluorescence, propionaldehyde substrate. Potency, µM (series often up to 75.3 µM), for inactives: at the highest dose activity, negative = inhibition, most hits filed as inhibitors. 220,000 compounds, 7.3% hits; active = well fitted inhibition curve with a large enough effect, not every such curve was filed as active; inconclusive = small, poorly fitted or top-dose-only effect, or another doubt; inactive = no such curve, though single readings can be large or run the other way;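 also: potency is read from the fitted curve at half-maximal effect; plate controls were no enzyme wells and a reference inhibitor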
Lamin A splicing: modulators of lamin A splicing. HeLa LMNA splicing GFP/RFP minigene ratio, 48 h. Potency, µM (series often up to 46.1 µM), inactives show at the top dose ratio change, negative = inhibition, hits mostly inhibitors. 200,000 compounds, 0.01% hits; active = well fitted inhibition curve with a large enough effect in the signal ratio, with a control signal flat, not every such curve was filed as active; inconclusive = small, poorly fitted or top-dose-only effect, or effect the other way, or a change in a side signal; the % refers to the signal ratio; also: potency is read from the fitted curve at half-maximal effect; % is scaled to controls: 0 for no effect and ±100 for the full control effect
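S3 HeLa cells stably expressing lamin A-EGFP splicing minigene plus DsRed2, 600 cells/well, 48 h compound exposure at 37C. Laser-scanning cytometry; analysed as GFP (500-530 nm)/RFP (575-640 nm) total intensity ratio; 0.5% DMSO vehicle.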
KDM4E inh: blocks human JMJD2E demethylase activity; B2RXH2; JMJD2E catalytic domain, FDH-coupled NADH fluorescence (FDH is formaldehyde dehydrogenase); Potency, µM (titrated, usually from 57.1 µM), inactives show top-dose activity change, negative = inhibition, most hits filed as inhibitors; 230,000 compounds, 1.6% hits; AID 2147; active = well fitted inhibition curve with a large enough effect, not every such curve was filed as active; inconclusive = small, poorly fitted or top-dose-only effect, or another doubt; inactive = no such curve, though single readings can be large or run the other way;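 also: potency is read from the fitted curve at half-maximal effect; 0% = wells with enzyme and -100% = buffer wells without enzyme; nearly all actives have a fitted effect of over 50% in size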
G9a block: G9a (human) methyltransferase inhibition. G9a H3K9 monomethylation, AlphaScreen, 2 h. Q96KQ7. Potency, µM (titrated, usually from 102 µM), inactives show top-dose activity, negative = inhibition, hits mostly inhibitors. 350,000 compounds, 8.8% hits; also: potency is read from the fitted curve at half-maximal effect; % is scaled to controls: 0 for no effect and ±100 for the full control effect; nearly all actives have a fitted effect of over 75% in size
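G9a (20 nM) was preincubated 15 min with compound, then reacted 2 h at room temperature with 500 nM biotin-H3K9 peptide and 20 µM SAM. Monomethyl-H3K9 detected by AlphaScreen using anti-H3K9me1 antibody.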
Active calls of the source: *; [ ] = dose if it differs, or a comment. Unless noted, calls follow the shape of the dose curve; as a rule, active = well fitted curve in the direction sought with a large enough effect; inconclusive = small, poorly fitted or top-dose-only effect, or another doubt; inactive = no such curve, though single readings can be large; an effect the other way counts as inactive or inconclusive.

Results for COc1ccc(S(=O)(=O)N(C)CC(=O)NC2CC2)cc1OC ?
Sfp PPTase inh: 2%; miR-21 FLuc: 0%

What do the screens show for `CN(C)c1ccc(CNC(=O)CCS(=O)(=O)c2ccc3c(c2)oc(=O)n3C)cc1`?
Sfp PPTase inh: 5%; miR-21 FLuc: 1%; Lamin A splicing: -2%[46 µM]; G9a block: inconclusive

How did COc1ccc(Cl)cc1NC(=S)Nc1cccc(C)c1 do in these assays?
Sfp PPTase inh: -16%; miR-21 FLuc: -6%; ALDH1A1 inh: -8%; Lamin A splicing: -13%[46 µM]; KDM4E inh: -9%; G9a block: -2%[59 µM]

What do the screens show for `CC(C)(O)C(=O)NNC(=S)Nc1ccc(F)c(Cl)c1`?
Sfp PPTase inh: 1%; miR-21 FLuc: -4%; ALDH1A1 inh: inconclusive; Lamin A splicing: -1%[46 µM]; KDM4E inh: -8%; G9a block: 45µM*

How did CC(C)(C)NC(=O)Nc1ccc(F)c(Cl)c1 do in these assays?
Sfp PPTase inh: 5%; miR-21 FLuc: -7%; ALDH1A1 inh: -8%; KDM4E inh: -1%; G9a block: 6%[59 µM]

What do the screens show for `COc1ccc(NC(=O)N(C2CCCCC2)C(C)c2cccnc2)c(OC)c1` (stereo not drawn)?
Sfp PPTase inh: 10%; miR-21 FLuc: -2%; ALDH1A1 inh: 1%; Lamin A splicing: -6%; KDM4E inh: -1%; G9a block: -9%[59 µM]

Results for COc1ccc(NC(=O)N(C2CCCCC2)C(C)c2ccco2)c(OC)c1 (stereo not drawn) ?
Sfp PPTase inh: 13%; miR-21 FLuc: -13%; ALDH1A1 inh: 2%; Lamin A splicing: 15%; KDM4E inh: 1%; G9a block: 45µM*

Results for COc1ccc(NC(=S)Nc2ccccc2OC)c(OC)c1 ?
Sfp PPTase inh: inconclusive; miR-21 FLuc: -6%; ALDH1A1 inh: 25µM*; KDM4E inh: -6%; G9a block: -16%[59 µM]

Results for COc1ccc(Cl)cc1NC(=S)Nc1cccnc1 ?
Sfp PPTase inh: 25µM*; miR-21 FLuc: -1%; ALDH1A1 inh: -1%; Lamin A splicing: -18%[46 µM]; KDM4E inh: inconclusive; G9a block: inconclusive

What do the screens show for `COc1ccc(C(C)C(=O)c2ccc(O)cc2O)cc1` (stereo not drawn)?
Sfp PPTase inh: 20%; ALDH1A1 inh: -1%; KDM4E inh: -6%; G9a block: -10%[2.33 µM]

Results for COc1ccc(N(CC(=O)NCc2ccccc2OC)S(=O)(=O)c2ccccc2[N+](=O)[O-])c(OC)c1 ?
Sfp PPTase inh: 3%; miR-21 FLuc: 1%; ALDH1A1 inh: inconclusive; Lamin A splicing: inconclusive; KDM4E inh: -4%; G9a block: inconclusive

What do the screens show for `CNC(=S)NNS(=O)(=O)c1ccc(OC)cc1OC`?
Sfp PPTase inh: 25µM*; miR-21 FLuc: -6%; ALDH1A1 inh: -9%; KDM4E inh: 2%; G9a block: -5%

What do the screens show for `COc1ccc(NC(=S)Nc2ccc(OC)cc2OC)c(OC)c1`?
Sfp PPTase inh: inconclusive; miR-21 FLuc: 0%; ALDH1A1 inh: 20µM*; Lamin A splicing: 0%; KDM4E inh: -9%; G9a block: 4µM*

How did COc1cccc(NC(=O)NNS(=O)(=O)c2ccc(OC)cc2OC)c1 do in these assays?
Sfp PPTase inh: 10%; miR-21 FLuc: -3%; G9a block: 36%

What do the screens show for `COc1ccc(NC(=S)NC2CCCCC2)c(OC)c1`?
Sfp PPTase inh: -5%; miR-21 FLuc: -13%; ALDH1A1 inh: 0%; Lamin A splicing: 2%[46 µM]; KDM4E inh: 10%; G9a block: 50µM*

What do the screens show for `COc1ccc(NC(=S)Nc2ccccn2)c(OC)c1`?
Sfp PPTase inh: 7%; miR-21 FLuc: -45%; ALDH1A1 inh: inconclusive; Lamin A splicing: inconclusive; KDM4E inh: -6%; G9a block: inconclusive

What do the screens show for `COc1ccc(NC(=S)NCCc2ccccc2OC)c(OC)c1`?
Sfp PPTase inh: 89µM*; miR-21 FLuc: 0%; ALDH1A1 inh: -6%; Lamin A splicing: -4%; KDM4E inh: -2%; G9a block: inconclusive

Among those listed so far, these have fluorine.
What do the screens show for `CC(C)(O)C(=O)NNC(=S)Nc1ccc(F)c(Cl)c1`?
Sfp PPTase inh: 1%; miR-21 FLuc: -4%; ALDH1A1 inh: inconclusive; Lamin A splicing: -1%[46 µM]; KDM4E inh: -8%; G9a block: 45µM*

How did CC(C)(C)NC(=O)Nc1ccc(F)c(Cl)c1 do in these assays?
Sfp PPTase inh: 5%; miR-21 FLuc: -7%; ALDH1A1 inh: -8%; KDM4E inh: -1%; G9a block: 6%[59 µM]
